As a reminder, the IC50 is the point on the concentration scale where inhibition reaches its midpoint. High values mean a need for much substance, low ones inhibition by little substance.

IC50 data for one compound are collected here from ChEMBL document CHEMBL1141296, “Brunneins A-C, beta-carboline alkaloids from Cortinarius brunneus” (J Nat Prod, 2007).

This experiment addresses T1, Acetylcholinesterase (Bos taurus, UniProt P23795).
T1 sequence (P23795 whole entry): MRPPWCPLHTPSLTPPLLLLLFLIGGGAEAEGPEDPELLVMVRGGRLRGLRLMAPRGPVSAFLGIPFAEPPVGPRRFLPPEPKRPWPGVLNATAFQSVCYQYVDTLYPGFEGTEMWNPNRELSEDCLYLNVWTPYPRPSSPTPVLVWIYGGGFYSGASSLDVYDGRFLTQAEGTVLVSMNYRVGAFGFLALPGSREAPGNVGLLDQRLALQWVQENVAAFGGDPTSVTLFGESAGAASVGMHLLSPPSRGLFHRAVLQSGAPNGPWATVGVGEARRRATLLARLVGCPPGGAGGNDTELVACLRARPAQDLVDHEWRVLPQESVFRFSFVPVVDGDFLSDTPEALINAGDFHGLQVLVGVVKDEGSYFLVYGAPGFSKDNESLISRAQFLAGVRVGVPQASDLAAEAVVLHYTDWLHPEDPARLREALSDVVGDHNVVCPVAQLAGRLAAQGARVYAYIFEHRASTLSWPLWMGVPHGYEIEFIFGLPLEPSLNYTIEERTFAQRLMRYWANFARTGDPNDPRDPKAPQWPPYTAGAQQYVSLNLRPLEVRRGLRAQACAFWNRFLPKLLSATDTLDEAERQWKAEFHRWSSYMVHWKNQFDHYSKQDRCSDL
Description: Inhibition of bovine AChE at 100 uM by Ellman's method. (In general: In Ellman's method for cholinesterases, released thiocholine reacts with DTNB.)

`CNC(=O)Oc1ccc2c(c1)[C@]1(C)CCN(C)[C@@H]1N2C` registered a half-inhibitory concentration (IC50) of 63.3 µM.
